Assay results: ChEMBL document CHEMBL5036327, “Systematic Optimization of Potent and Orally Bioavailable Purine Scaffold as a Dual Inhibitor of Toll-Like Receptors 7 and 9” (J Med Chem, 2021)

Target: T1, Toll-like receptor 9 (Homo sapiens, UniProt Q9NR96)
T1 sequence (Q9NR96 whole entry): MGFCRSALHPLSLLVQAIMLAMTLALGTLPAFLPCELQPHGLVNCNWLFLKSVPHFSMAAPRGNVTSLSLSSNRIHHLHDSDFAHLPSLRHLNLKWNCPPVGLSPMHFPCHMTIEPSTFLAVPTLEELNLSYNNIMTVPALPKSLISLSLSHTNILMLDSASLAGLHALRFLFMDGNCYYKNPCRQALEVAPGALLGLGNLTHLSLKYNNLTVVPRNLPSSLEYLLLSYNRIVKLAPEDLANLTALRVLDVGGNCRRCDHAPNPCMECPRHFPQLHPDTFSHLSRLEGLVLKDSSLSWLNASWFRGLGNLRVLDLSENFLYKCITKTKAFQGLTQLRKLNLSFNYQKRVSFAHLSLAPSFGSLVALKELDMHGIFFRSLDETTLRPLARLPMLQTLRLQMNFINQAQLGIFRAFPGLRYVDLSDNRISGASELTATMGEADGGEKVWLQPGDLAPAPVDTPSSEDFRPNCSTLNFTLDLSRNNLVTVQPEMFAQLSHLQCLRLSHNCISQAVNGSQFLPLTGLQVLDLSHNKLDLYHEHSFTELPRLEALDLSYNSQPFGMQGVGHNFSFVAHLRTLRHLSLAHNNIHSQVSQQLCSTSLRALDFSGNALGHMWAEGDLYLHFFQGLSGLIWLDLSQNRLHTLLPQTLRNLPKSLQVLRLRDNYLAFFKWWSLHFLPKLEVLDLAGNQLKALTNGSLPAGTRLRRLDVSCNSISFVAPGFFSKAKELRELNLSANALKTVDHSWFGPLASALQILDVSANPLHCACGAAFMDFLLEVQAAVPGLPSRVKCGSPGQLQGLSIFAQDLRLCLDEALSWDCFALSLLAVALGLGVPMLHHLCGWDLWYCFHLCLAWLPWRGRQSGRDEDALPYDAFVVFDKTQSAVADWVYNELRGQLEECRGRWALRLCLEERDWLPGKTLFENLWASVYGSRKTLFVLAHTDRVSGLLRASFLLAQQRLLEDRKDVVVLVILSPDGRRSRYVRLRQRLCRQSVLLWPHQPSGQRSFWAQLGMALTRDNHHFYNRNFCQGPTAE
Experiment: Antagonist activity at human TLR9 expressed in […] cells assessed as inhibition of CpGB-induced NFkappaB activation measured after overnight incubation by SEAP-based spectrophotometry assay
Assay type: cell-based, HEK293

IC50: 7 nM
Compound: CN(C)Cc1ccc(CNc2nc(N3CCN(C4CCCC4)CC3)c3ncn(CCCN4CCCC4)c3n2)cc1
